Yeast mating assay B: variants of the scFv Ab-14

Data: MIT Lincoln Laboratory AlphaSeq set, Li et al. 2023, doi:10.1038/s41467-023-39022-2, as distributed in FLAb.

Binding partner: SARS-CoV-2 spike HR2 peptide, sequence PDVDLGDISGINAS.

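These sequences belong to a second round, designed from the earlier measurements on random variants of the parent. Several design methods are mixed in this list. The scFvs were displayed on barcoded MATa yeast, the peptide on MATalpha yeast. Mating (16 h, 30 °C) was followed by selection of diploids and sequencing of their barcodes. Each replicate has its own calibration line, from reference interactions of the BCL2 family. The assay was run in six technical replicates.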

Ab-14 is the parent antibody, in scFv form: VH, then three GGGGS repeats, then VL. The heavy chain is unchanged in all variants.
VH: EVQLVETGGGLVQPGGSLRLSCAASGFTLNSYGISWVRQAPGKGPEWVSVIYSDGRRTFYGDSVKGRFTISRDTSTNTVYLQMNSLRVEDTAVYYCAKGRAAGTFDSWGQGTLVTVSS
VL: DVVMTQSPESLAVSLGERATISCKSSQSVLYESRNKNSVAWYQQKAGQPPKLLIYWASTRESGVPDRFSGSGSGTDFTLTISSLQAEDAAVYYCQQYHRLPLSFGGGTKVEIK

Variants are written as CDR1, CDR2 and CDR3 of the light chain (limits as in the source). Parent: KSSQSVLYESRNKNSVA, WASTRES, QQYHRLPLS.
Numbers give log10(Kd / nM), so 0 is 1 nM and 3 is 1 µM. Smaller is tighter.
The mean shown is taken over the replicates in which the pair was detected.
A pair that was not seen in any replicate is written "no signal"; this usually means weak binding, but a binder can also be missed.
The authors averaged sequences with at least three values out of six and counted those with two or fewer as poor binders.
Of ten entries with the parent sequence, four were seen in most replicates (averages 0.34 to 2.37), three in one and three in none, so single entries are noisy.
A sequence measured in both rounds can read differently, since the two assays cover different ranges.
Background: pairings of all light chain designs with three empty control strains gave a value in 4% of cases (median 2.64, 5th percentile 1.59). Values in that range, when seen in few replicates, are hard to tell from nonspecific mating.

mean, log10 nM	seen in	CDR-L1	CDR-L2	CDR-L3
-0.04	6 of 6	KLSGSVLPESRNKNSVA	SATTRLS	QQYHRLPLS
1.39	6 of 6	HISQMVMYGSCNKNNVA	QVSLRGE	QQYHRLPLS
-0.15	6 of 6	QLDWYNTTATASANNVA	DVAQRAN	QQYMRLPLM
1.00	6 of 6	KSSQSVLYEERNGNSVA	EASTRES	QQYHRLPLS
no signal	0 of 6	KSSQSVLYESRNKNSVA	RGSTRES	QQCHRLPLS
0.21	6 of 6	KSSQSGLYESRNKNSVA	NSSTRES	QQYHRLPLS
no signal	0 of 6	DSWQSVLYESRNKNSVA	NASTRES	VQYHRLPLS
0.42	6 of 6	KLQQSELYESRNKNSVA	NASQRCS	QQYHRLPLS
no signal	0 of 6	KSSQSVLYESRNKNSVA	WASFRES	NQYFHLPLS
no signal	0 of 6	MVNNIMDHLSKQTNNVA	ETVTREE	QQYDRLPLT
0.64	6 of 6	KVSDMMAFLSRNRNSVA	DNSTRGS	QQYNRLPLS
-0.03	6 of 6	KLSQSDLYQSRNKNSVA	NASTRYS	QQYHRLPLS
0.94	6 of 6	QISMFELQGTGWAQNIA	QASHRTE	QQFSRLPLV
2.89	2 of 6	MIGQVAFGLSRKANSVA	DNSTRED	QQYDRLPLS
-0.22	6 of 6	KLSQLMLYESRNKNSVA	NASTRGS	QQYHRLPLS
0.17	6 of 6	KVSQSELYESRNKNAVA	EASQRES	QQYHRLPLS
0.67	6 of 6	TISQSAQMESHNKNSVA	DLNLRGN	QQYDRLPLS
0.92	6 of 6	HMSMLTLGGMRAHNSVA	QMTTREN	QQYDRLPLA
no signal	0 of 6	KDSQSVLYESRNHNSVA	WASTRES	QYYHRLPLS
2.02	1 of 6	KSIQSVLNEARNKNSVA	WASTRES	QQYHRLPLS
0.12	6 of 6	KLVWSDLYESRNKNSVA	GASQRES	QQYHRLPLS
2.10	4 of 6	HLNKQAWDFNQTWNAVA	AHSMRAT	QQYYRLPLT
no signal	0 of 6	MLSEVLHMLGVMKNSIA	DLVLRAN	QQYHRLPLF
no signal	0 of 6	GFSQSVLYESRNNNSVA	WASTRES	QQYHRLPLS
0.34	6 of 6	QLGDVTRMESNKKNSIA	DMSTRES	QQYHRLPLS
0.11	6 of 6	KSSQSVLGESRNCNSVA	EASTRES	QQYHRLPLS
2.00	6 of 6	IVSQVMSWGIHAKNSIA	EAQMRLN	QQYDRLPLF
0.08	6 of 6	KLQQSVLYESRNKNSVA	GASCRES	QQYHRLPLS
1.31	6 of 6	KLTSTMRFEQKKKNNIA	EVSERSK	QQYFRLPLA
0.14	6 of 6	KIQQSELQESRNKNSVA	NASERES	QQYHRLPLS
0.78	5 of 6	KSSQSVLYEFRNKNSVA	WASTRES	QQYHRLPLS
no signal	0 of 6	TVTQMAMTGMKNKRSVA	NAETRES	QQYHRLPLI
-0.51	6 of 6	KVSPSMWYESRNKNAVA	DASQRES	QQYHRLPLQ
1.54	5 of 6	MISQLMNMGQFAINSVA	QASLRCN	QQYFRLPLE
1.58	1 of 6	HVSQLLTDEMYREYNVA	ETSHVEE	QDYERLPLI
2.12	6 of 6	TLMHHQDRQDEWKKSIA	NAIIREF	QQYSRLPLA
-0.21	6 of 6	KLSQSVLYESRMTNSVA	NASTRES	QQYHRLPLS
-0.12	6 of 6	KLSQSELYESRNKNSVA	NASTRCS	QQYHRLPLS
0.18	6 of 6	KIGMTLNQLQEKKNNVA	DLVTREN	QQYHRLPLS
0.50	6 of 6	TLMQFGGYESNAHNSIA	DLRTRES	QQYHRLPLS
0.64	6 of 6	TISQSWVIESRNKNNVA	EMSTREN	QDYDRLPLS
0.34	6 of 6	KLSQSWLYESRNKNSVA	NASTREQ	QDYHRLPLS
0.02	6 of 6	HSSWGVDDESRNDNSVA	KASTRES	QQYHRLPLS
0.38	6 of 6	HISYSMQHLSKNKNSVA	NQQTREY	QQYHMLPLS
0.92	6 of 6	KISTLTLYESVNKNSVA	EMSTRPS	QSYHRLPLS
1.25	6 of 6	HLHTIMYTEGIGTNSIA	DANLHVT	QQYFRLPIM
1.22	1 of 6	KSSQSVLFESRNKNSVA	WASTRES	QQYIRLPLS
0.27	6 of 6	KSSQSYWYESRNKNSVA	GASTRES	QQYHRLPLS
1.74	6 of 6	ILYDSVGTLSRNKYSVA	DNSTRES	QQYDRLPLS

The closing 5 entries, repeated:

{"CDR-L1": "KISTLTLYESVNKNSVA", "CDR-L2": "EMSTRPS", "CDR-L3": "QSYHRLPLS", "mean, log10 nM": "0.92", "seen in": "6 of 6"}
{"CDR-L1": "HLHTIMYTEGIGTNSIA", "CDR-L2": "DANLHVT", "CDR-L3": "QQYFRLPIM", "mean, log10 nM": "1.25", "seen in": "6 of 6"}
{"CDR-L1": "KSSQSVLFESRNKNSVA", "CDR-L2": "WASTRES", "CDR-L3": "QQYIRLPLS", "mean, log10 nM": "1.22", "seen in": "1 of 6"}
{"CDR-L1": "KSSQSYWYESRNKNSVA", "CDR-L2": "GASTRES", "CDR-L3": "QQYHRLPLS", "mean, log10 nM": "0.27", "seen in": "6 of 6"}
{"CDR-L1": "ILYDSVGTLSRNKYSVA", "CDR-L2": "DNSTRES", "CDR-L3": "QQYDRLPLS", "mean, log10 nM": "1.74", "seen in": "6 of 6"}